Measurements reported in patent publication US9481673B2.
pIC50: −log10 of the molar value.

Amino acid sequences for entries named in this document (tags omitted).
UniProt P10635, whole entry: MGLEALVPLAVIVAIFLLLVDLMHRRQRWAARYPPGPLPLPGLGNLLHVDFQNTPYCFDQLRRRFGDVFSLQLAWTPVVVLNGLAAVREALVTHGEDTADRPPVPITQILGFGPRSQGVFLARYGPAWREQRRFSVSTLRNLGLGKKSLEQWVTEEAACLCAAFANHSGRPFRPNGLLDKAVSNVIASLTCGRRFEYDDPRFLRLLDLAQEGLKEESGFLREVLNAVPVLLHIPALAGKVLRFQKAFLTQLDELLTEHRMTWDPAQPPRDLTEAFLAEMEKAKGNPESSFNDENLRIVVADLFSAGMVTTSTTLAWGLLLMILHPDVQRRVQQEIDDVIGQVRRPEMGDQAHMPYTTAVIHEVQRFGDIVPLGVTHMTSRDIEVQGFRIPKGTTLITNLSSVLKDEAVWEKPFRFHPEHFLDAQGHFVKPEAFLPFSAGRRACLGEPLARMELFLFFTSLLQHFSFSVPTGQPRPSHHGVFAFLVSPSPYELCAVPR

Molecular target: P450 2D6 (Homo sapiens (Human), UniProt P10635)
Test: Cytochrome P450 isoenzyme inhibition assay, demethylation of Dextromethorphan
Type: in vitro ADME
Conditions: (S)-isomers; human liver microsomes, 37° C.

pIC50	SMILES
4.54	CN[C@@H](C)C(=O)Nc1ccc(-c2c(-c3cccnc3OC)nc3ccccn23)c(C#Cc2ccc3c(C)nccc3c2)n1 [(S)-16, (2S)-N-{5-[2-(2-methoxypyridin-3-yl)imidazo[1,2-a]-pyridin-3-yl]-6-[2-(1-methylisoquinolin-6-yl)ethynyl]pyridin-2-yl}-2-(methylamino)-propanamide]
< 4.30	CN[C@@H](C)C(=O)Nc1ccc(-c2c(-c3cnc(C)nc3)nc3cc(C)ccn23)c(C#Cc2ccc3c(C)nccc3c2)n1 [(S)-7, (2S)-N-{5-[7-methyl-2-(2-methylpyrimidin-5-yl)imidazo[1,2-a]-pyridin-3-yl]-6-[2-(1-methylisoquinolin-6-yl)ethynyl]pyridin-2-yl}-2-(methylamino)-propanamide]
